Reference: ChEMBL document CHEMBL4041478, “Synthesis, in vitro evaluation and molecular docking studies of novel triazine-triazole derivatives as potential α-glucosidase inhibitors” (Eur J Med Chem, 2017)

Test system: alpha-glucosidase (Saccharomyces cerevisiae)
Assay: Potency index, ratio of acarbose IC50 to compound IC50 for alpha-glucosidase (unknown origin)
Details: Homo sapiens

Ratio IC50: 70
SMILES: O=C(Cn1cc(CSc2nnc(-c3ccccc3)c(-c3ccccc3)n2)nn1)Nc1cc(Cl)ccc1Cl
